The target in this assay is Disintegrin and metalloproteinase domain-containing protein 17 (Homo sapiens, UniProt P78536). Briefly: Inhibition of TACE.

Chains of the proteins cited; added tags and fusions are not shown. Lines headed by an entry give the natural chain unless they say otherwise; changes in a name come on top.
UniProt P78536: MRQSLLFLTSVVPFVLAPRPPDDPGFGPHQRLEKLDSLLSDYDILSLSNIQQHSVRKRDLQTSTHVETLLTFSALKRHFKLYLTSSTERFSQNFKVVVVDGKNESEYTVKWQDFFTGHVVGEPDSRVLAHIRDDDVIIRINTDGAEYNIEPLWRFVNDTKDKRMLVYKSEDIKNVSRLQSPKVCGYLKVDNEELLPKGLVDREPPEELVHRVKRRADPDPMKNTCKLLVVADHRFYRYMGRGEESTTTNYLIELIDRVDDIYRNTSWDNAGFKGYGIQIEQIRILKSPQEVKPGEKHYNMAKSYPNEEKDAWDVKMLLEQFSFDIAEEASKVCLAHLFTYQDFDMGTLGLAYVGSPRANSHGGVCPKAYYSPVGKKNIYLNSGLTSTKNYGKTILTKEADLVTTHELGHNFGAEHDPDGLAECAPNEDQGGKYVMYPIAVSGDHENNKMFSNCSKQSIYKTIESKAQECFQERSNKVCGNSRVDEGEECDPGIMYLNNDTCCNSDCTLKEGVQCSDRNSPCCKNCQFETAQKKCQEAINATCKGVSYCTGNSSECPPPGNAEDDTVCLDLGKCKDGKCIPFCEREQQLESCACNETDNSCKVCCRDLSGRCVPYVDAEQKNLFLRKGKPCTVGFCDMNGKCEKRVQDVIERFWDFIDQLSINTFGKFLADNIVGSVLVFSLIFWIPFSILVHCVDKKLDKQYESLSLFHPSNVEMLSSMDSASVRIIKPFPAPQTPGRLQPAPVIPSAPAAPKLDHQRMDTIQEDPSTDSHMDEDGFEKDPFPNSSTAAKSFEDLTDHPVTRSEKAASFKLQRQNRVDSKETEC

pKi: −log10 of the molar value.

Regarding `COc1ccc2c(c1)C(=O)N(C[C@@]1(C#Cc3ccc(CC(N)=O)cc3)NC(=O)NC1=O)C2`, the negative-log Ki (pKi) (commonly the negative decadic logarithm of the Ki, by convention in mol/L) was 9.38.
For `COc1ccc2c(c1)C(=O)N(C[C@@]1(C#Cc3ccc(N4CCNCC4)cc3)NC(=O)NC1=O)C2`, the pKi was 9.21.

The values are drawn from ChEMBL document CHEMBL1287807, “Novel TNF-α converting enzyme (TACE) inhibitors as potential treatment for inflammatory diseases” (Bioorg Med Chem Lett, 2010).
